Test results published in PubChem BioAssay AID2435 (The Scripps Research Institute Molecular Screening Center, 2010).
The list shows a part of the results, in another mix than the full data. Activity calls are given as the source filed them.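 How the source made its calls: active means activation above the mean of all tested compounds plus 3 SD, cutoff set per screening run (cut at about 20% in these data); inactive means the rest.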

By UniProt entry, the sequences of proteins in these tests, tags left out. Where a name states a change or a piece, a line headed by the entry shows the natural chain unless it says otherwise.
UniProt P30559: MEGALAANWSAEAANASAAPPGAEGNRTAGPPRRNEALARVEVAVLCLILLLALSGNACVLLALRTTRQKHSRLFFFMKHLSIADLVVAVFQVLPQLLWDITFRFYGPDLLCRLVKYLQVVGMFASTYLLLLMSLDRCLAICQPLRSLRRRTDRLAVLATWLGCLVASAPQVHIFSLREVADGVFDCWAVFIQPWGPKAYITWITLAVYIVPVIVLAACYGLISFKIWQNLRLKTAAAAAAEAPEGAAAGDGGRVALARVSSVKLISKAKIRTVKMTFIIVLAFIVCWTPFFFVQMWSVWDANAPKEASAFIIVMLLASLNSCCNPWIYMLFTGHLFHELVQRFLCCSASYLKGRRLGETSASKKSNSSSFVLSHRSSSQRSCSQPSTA

molecular target: Oxytocin receptor (Homo sapiens) (UniProt P30559); assay: human OXTR agonists, primary screen, fluorescence, CHO-OTR cells, Fluo-8 calcium (AID 2435); conditions: Fluo-8 calcium fluorescence, at 3 µM, active compounds read high, normalized: DMSO 0%, oxytocin 100%;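 further: peak over basal fluorescence ratio from a 100 s FLIPR kinetic read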

Row | Compound | activation
1 | O=P(Nc1nccs1)(c1ccccc1)c1nc2ccccc2s1 (centres undefined) | inactive: -1.09%
2 | O=P(Nc1nccs1)(Oc1ccccc1)Oc1ccccc1 | inactive: 0.03%
3 | CCOP1(=S)c2c(C)nn(CCC#N)c2N=C(c2ccccc2F)N1C (centres undefined) | inactive: -1.19%
4 | CS(=O)(=O)c1cc([N+](=O)[O-])c2no[n+]([O-])c2c1 | inactive: 0.21%
5 | Nc1ccccc1[As](=O)(O)c1ccccc1 | inactive: 0.22%
6 | O=C(O)COc1ccc([As](=O)(O)O)cc1[N+](=O)[O-] | inactive: 0.1%
7 | NC(=O)Nc1ccc([As](=O)(O)O)cc1 | inactive: 0.52%
8 | CCOP1(=S)c2c(C)nn(CCC#N)c2N=C(c2ccc(F)cc2)N1C (centres undefined) | inactive: -0.79%
9 | CN(C(=O)Cc1ccccc1)[C@@H]1CC[C@]2(CCCO2)C[C@H]1N1CCCC1 | inactive: 0.21%
10 | N#CCCN(C(=O)COC(=O)C(O)(c1ccccc1)c1ccccc1)c1ccc(F)cc1 | inactive: 4.08%
11 | CN(C(=O)Cc1ccc(Cl)c(Cl)c1)[C@H]1CC[C@@]2(CCCO2)C[C@@H]1N1CCCC1 | inactive: 1.09%
12 | CN(C)C(=O)c1cc([N+](=O)[O-])cc2c1-c1c(cc([N+](=O)[O-])cc1[N+](=O)[O-])C2=O | inactive: -2.53%
13 | O=[N+]([O-])c1ccc2c(c1)nnn2O | inactive: 0.48%
14 | O=C(OC1CN2CCC1CC2)c1ccc(Cl)cc1 (centres undefined) | inactive: 1.05%
15 | CS(=O)(=O)c1ccc(Cl)c(NC(=O)COC(=O)C(O)(c2ccccc2)c2ccccc2)c1 | inactive: 11.4%
16 | COc1cc(C(=O)NCC2(N3CCOCC3)CCCCC2)cc(Cl)c1OC(C)C | inactive: -3.16%
17 | O=[As](O)(O)c1cccnc1 | inactive: 0.28%
18 | O=[As](O)(c1cccc(O)c1)c1cccc(O)c1 | inactive: 1.36%
19 | Cc1cccc(OCC(=O)OC2CN3CCC2CC3)c1 (centres undefined) | inactive: 0.32%
20 | Cc1ccc(NCCc2c([N+](=O)[O-])cc([N+](=O)[O-])cc2[N+](=O)[O-])cc1 | inactive: -1.93%
21 | CCCOP(=S)(Nc1nc(N)cc(=O)[nH]1)OCCC | inactive: -0.7%
22 | CCOP(=O)(Nc1cccc2ccccc12)OCC | inactive: -0.54%

Row | Compound | activation
23 | COc1cc(C2NCCC3(OCCO3)C2(C)C)cc(OC)c1OC (centres undefined) | inactive: 1.48%
24 | CCOP(=O)(NC(=NC(C)c1ccccc1)NC(C)c1ccccc1)OCC (centres undefined) | inactive: -0.78%
25 | O=P1(Nc2ccccn2)COc2ccccc2OC1 | inactive: -0.76%
26 | CCC1=CC2Cc3nc4ccc(Cl)cc4c(N)c3C(C1)C2 (centres undefined) | inactive: 5.29%
27 | CN(CCCl)Cc1cc(Cl)c(NC2=NCCN2)c(Cl)c1 | inactive: 0.35%
28 | CCOP(=O)(Nc1ccc(C)cn1)OCC | inactive: 0.63%
29 | CC(C)(C)C(=O)NC(Sc1ncccn1)C(Cl)(Cl)Cl (centres undefined) | inactive: -0.21%
30 | Clc1n[nH]nc1-c1nn[nH][15n]1 | inactive: 0.95%
31 | COc1ccccc1CNC(=O)COC(=O)C(O)(c1ccccc1)c1ccccc1 | inactive: 0.59%
32 | CC(C)/C=N\N=C(\N)N[N+](=O)[O-] | inactive: -0.31%
33 | CN(C(=O)Cc1ccc(Cl)c(Cl)c1)[C@@H]1CCCC[C@H]1N1CCCC1 | inactive: -0.06%
34 | CC1(CBr)Cn2c(nc3ccccc3c2=O)S1 (centres undefined) | inactive: 0.65%
35 | O=[As](O)(c1ccccc1Br)c1ccccc1Br | inactive: -0.27%
36 | CC1CCC(C(C)C)C(OP(=O)(Nc2ccccn2)c2ccccc2)C1 (centres undefined) | inactive: -0.72%
37 | Cc1ccc(C(=O)OC2CN3CCC2CC3)cc1 (centres undefined) | inactive: 0.4%
38 | Cc1nn(-c2ccccc2)c2c1P(=O)(N1CCOCC1)N(C)C(c1ccccc1)=N2 (centres undefined) | inactive: 0.02%
39 | CN(C)C1(CNC(=O)c2ccc(S(C)(=O)=O)cc2)CCCCC1 | inactive: 1.14%
40 | O=C(/C=C/c1ccccc1)OC1CN2CCC1CC2 (centres undefined) | inactive: -1.64%
41 | O=P1(Nc2ncccn2)COc2ccccc2OC1 | inactive: 1.14%
42 | Nc1cccc([As](=O)(O)c2ccccc2)c1 | inactive: 0.91%
43 | O=P1(Nc2ccc(Br)cn2)COc2ccccc2OC1 | inactive: 2.11%
44 | NS(=O)(=O)c1cccc(NC(=O)COC(=O)C(O)(c2ccccc2)c2ccccc2)c1 | inactive: -0.14%

Row | Compound | activation
45 | O=[As](O)(c1cccs1)c1cccs1 | inactive: 0.52%
46 | Cc1ccc(OCC(=O)OC2CN3CCC2CC3)cc1 (centres undefined) | inactive: 1.26%
47 | CCOC(=O)Nc1ccc([As](=O)(O)O)c(O)c1 | inactive: 0.44%
48 | Cc1cc(SC(NC(=O)c2ccccc2)C(Cl)(Cl)Cl)nc(C(C)C)n1 (centres undefined) | inactive: -0.54%
49 | CCOC(=O)Nc1cccc([As](=O)(O)O)c1 | inactive: 0.96%
50 | O=P(Nc1ccccn1)(c1cccc2ccccc12)c1cccc2ccccc12 | inactive: 9.77%
51 | Cc1cc(SC(NC=O)C(Cl)(Cl)Cl)ncn1 (centres undefined) | inactive: 0.66%
52 | COP1(=S)c2c(C)nn(CCC#N)c2N=C(c2ccc(F)cc2)N1C (centres undefined) | inactive: 0.25%
53 | O=C(Nc1ccncc1[N+](=O)[O-])c1ccc([N+](=O)[O-])cc1[N+](=O)[O-] | inactive: 0.9%
54 | O=C(COc1ccccc1)OC1CN2CCC1CC2 (centres undefined) | inactive: 0.77%
55 | O=C(OC1CN2CCC1CC2)c1cccc([N+](=O)[O-])c1 (centres undefined) | inactive: -0.23%
56 | CCOC(=O)c1ccc(NC(=O)C(C)(CCl)SC)cc1 (centres undefined) | inactive: 0.11%
57 | CCC(C)N(CC(C)C)C(=S)SC(NC(C)=O)C(Cl)(Cl)Cl (centres undefined) | inactive: 0.75%
58 | Cc1c2c(nc3ccccc13)SC(C(Cl)Cl)C2 (centres undefined) | inactive: -2.55%
59 | Cc1cc(=O)[nH]c(N[N+](=O)[O-])n1 | inactive: 0.63%
60 | O=C(OC1CN2CCC1CC2)C12CC3CC(CC(C3)C1)C2 (centres undefined) | inactive: 3.87%
61 | COc1cc(I)ccc1[As](=O)(O)O | inactive: -0.98%
62 | COc1ccc2nc(NP(=O)(c3ccccc3)c3ccccc3)sc2c1 | inactive: -1.44%
63 | COc1ccc(N/C(=N/P(=O)(N2CCOCC2)N2CCOCC2)N2CCOCC2)cc1 | inactive: 1.25%
64 | COc1cc(C(=O)NCC2(N3CCOCC3)CCCCC2)ccc1OCC(C)C | inactive: -2.29%
